For the test, the target named is His-tagged recombinant human Gal-3 (hGal-3) (Homo sapiens (Human), UniProt P17931). Put plainly: Gal-3 HTRF assay (His-tagged hGal-3 binding to B-ASF).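 Also: compounds preincubated 30 min with hGal-3, then 1 h with B-ASF, detection via terbium anti-His antibody and streptavidin d2. Control with B-ASF counts as full signal, omitting B-ASF as background.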
The mark [1] stands for this setting: read-out: hGal-3 IC50, HTRF, hGal-3 15 nM, B-ASF 15 nM.

By UniProt entry, the sequences of proteins in these tests, tags left out.
UniProt P17931, whole entry: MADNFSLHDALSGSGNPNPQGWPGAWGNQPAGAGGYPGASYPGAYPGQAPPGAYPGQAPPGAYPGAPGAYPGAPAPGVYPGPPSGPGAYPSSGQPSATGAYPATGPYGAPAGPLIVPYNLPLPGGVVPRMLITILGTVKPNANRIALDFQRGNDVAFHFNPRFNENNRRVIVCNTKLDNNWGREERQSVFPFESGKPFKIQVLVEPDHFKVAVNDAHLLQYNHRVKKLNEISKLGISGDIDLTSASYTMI

Each structure is given as a SMILES string. Read-outs that look alike come from different tables or passages of the source.

The IC50 is the concentration that inhibits the measured activity by half.

For the compound `Cn1cnc2ccc(-n3cnnc3[C@@H]3O[C@H](CO)[C@H](O)[C@H](n4cc(-c5cc(F)c(F)c(F)c5)nn4)[C@H]3O)cc21`, under setting [1], the IC50 was 0.03 µM. For `Cc1nc([C@@H]2O[C@H](CO)[C@H](O)[C@H](n3cc(-c4cc(F)c(Cl)cc4F)nn3)[C@H]2O)n(-c2cc(Cl)ccc2C(F)(F)F)n1`, the IC50 (read-out: hGal IC50) is 0.046 µM. For `OC[C@H]1O[C@@H](c2ncnn2-c2ccc(Cl)cc2Cl)[C@H](O)[C@@H](n2cc(-c3cc(F)c(F)c(F)c3)nn2)[C@H]1O`, the IC50 under setting [1] amounted to 0.59 µM.

(Values after patent US11267811B2, “Small molecule inhibitors of galectin-3” (BRISTOL-MYERS SQUIBB COMPANY, priority 2017, dated 2022).)
